Molecular target: Neuronal acetylcholine receptor subunit alpha-3 (Homo sapiens, UniProt P32297)

Sequences of proteins named here, by UniProt entry; tags and fusion partners are left off.
UniProt P32297, whole entry: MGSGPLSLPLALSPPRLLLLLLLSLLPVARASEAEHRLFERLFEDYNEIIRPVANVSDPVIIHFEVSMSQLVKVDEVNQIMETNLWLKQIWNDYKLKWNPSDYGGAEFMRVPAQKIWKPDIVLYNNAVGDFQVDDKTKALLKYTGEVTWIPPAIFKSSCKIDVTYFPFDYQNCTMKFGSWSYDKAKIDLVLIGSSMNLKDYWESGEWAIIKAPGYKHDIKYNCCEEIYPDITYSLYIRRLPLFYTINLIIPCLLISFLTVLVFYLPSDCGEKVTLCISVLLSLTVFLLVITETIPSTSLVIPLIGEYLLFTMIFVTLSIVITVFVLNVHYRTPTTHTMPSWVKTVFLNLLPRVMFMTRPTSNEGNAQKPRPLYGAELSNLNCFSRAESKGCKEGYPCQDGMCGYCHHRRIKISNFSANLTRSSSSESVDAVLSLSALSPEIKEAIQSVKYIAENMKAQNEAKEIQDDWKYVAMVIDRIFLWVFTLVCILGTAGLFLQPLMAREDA

## CNC1(C)C2CCC(C2)C1(C)C (stereo unspecified) [Methyl-(2,3,3-trimethyl-bicyclo[2.2.1]hept-2-yl)-amine(Mecamylamine)]
  Ki: 1.4 µM
